The target of test [1] is hTSH receptor expressed on CHO cells (human) (UniProt P16473). The test can be described thus: cell-based or functional assay.
Test [2] has as its target human TSH receptor on CHO cells (human) (UniProt P16473). Put plainly: cell-based or functional assay.

Several values for one entry are separate records, joined by “and”; a condition that tells them apart may be missing. Equal values may be shown once.

In the case of “porcine TSH (from UniProt P01219 25-120; P01224 21-132) (ligand)”, in test [1], the cyclic AMP (pmols per well); Experiment 1, Porcine TSH 0.1 ng/mL (pmols per well) amounted to 1.07; the cyclic AMP (pmols per well); Experiment 2, Porcine TSH 0.05 ng/mL (pmols per well) stood at 1.07; the stimulation of cyclic AMP production in CHO cells transfected with the TSH receptor was 0.1 ng/mL. In addition, in test [2], the mean pmol cyclic AMP/cell well; pTSH 0.5 ng/mL plus assay buffer (pmol/cell well) was determined as 3.91; the pmol cyclic AMP/cell well; pTSH 0.5 ng/mL plus assay buffer (pmol/cell well) is 4.02 and 2.75 and 4.96; the x basal stimulation; pTSH 0.5 ng/mL plus assay buffer came to 11.5 x basal; the x basal stimulation; pTSH 0.5 ng/mL plus assay buffer (separate experiment) came out at 12.7 x basal.

The values are drawn from patent US20060241289A1.
